Data taken from PubChem BioAssay AID2147 (National Center for Advancing Translational Sciences (NCATS), 2009).
This is a selection; strong and weak results do not stand in their true shares. Records with an inconclusive call do not appear. Where a call stands in place of a potency, no number is given. The source made the active and inactive calls. The call rests on the fitted dose curve; in most records, active means well fitted inhibition curve with a large enough effect (not every such curve was filed as active); inconclusive means small, poorly fitted or top-dose-only effect, or another doubt; inactive means no such curve, though single readings can be large or run the other way.
Further: nearly all actives have a fitted effect of over 50% in size.

By UniProt entry, the sequences of proteins in these tests, tags left out. Where a name states a change or a piece, a line headed by the entry shows the natural chain unless it says otherwise.
UniProt B2RXH2: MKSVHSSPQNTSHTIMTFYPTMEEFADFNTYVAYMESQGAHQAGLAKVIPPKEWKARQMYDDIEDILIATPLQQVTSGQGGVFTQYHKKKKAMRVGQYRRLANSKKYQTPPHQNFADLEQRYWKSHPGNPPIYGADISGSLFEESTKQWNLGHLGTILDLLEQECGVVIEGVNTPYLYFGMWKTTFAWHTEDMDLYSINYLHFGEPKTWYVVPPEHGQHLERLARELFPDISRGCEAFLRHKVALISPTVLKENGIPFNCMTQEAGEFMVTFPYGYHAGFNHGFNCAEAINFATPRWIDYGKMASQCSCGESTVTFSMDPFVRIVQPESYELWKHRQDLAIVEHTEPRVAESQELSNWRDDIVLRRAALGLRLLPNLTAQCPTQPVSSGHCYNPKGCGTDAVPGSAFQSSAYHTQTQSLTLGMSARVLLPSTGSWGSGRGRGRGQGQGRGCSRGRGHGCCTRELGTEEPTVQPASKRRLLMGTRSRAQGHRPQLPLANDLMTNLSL

Each compound was assayed against Lysine-specific demethylase 4E (Homo sapiens) (UniProt B2RXH2) (assay: qHTS Assay for Inhibitors of Human Jumonji Domain Containing 2E (JMJD2E)). Conditions: JMJD2E catalytic domain, FDH-coupled NADH fluorescence (FDH is formaldehyde dehydrogenase); series mostly up to 57.1 µM.
For `Oc1ccccc1CNc1ccccn1`, the Potency was “inactive”. In the case of `Nc1cc(N)c2nonc2c1[N+](=O)[O-]`, the Potency is reported as “inactive”. `CC(C)CC(=O)NC(Sc1ccc(Cl)cc1)C(Cl)(Cl)Cl` (centres undefined) was tested, and the Potency was “inactive”. In the case of `O=P(Nc1nc2ccc(Cl)cc2s1)(c1ccccc1)c1ccccc1`, the Potency is reported as “inactive”. For `CC(=O)Nc1ccc([As](=O)(O)O)cc1`, the Potency was “inactive”. In the case of `O=C(O)c1ccccc1[As](=O)(O)O`, the Potency is reported as “inactive”. `CN(C(=O)Cc1ccc(Cl)c(Cl)c1)[C@H]1CCCC[C@@H]1N1CCCC1` was tested, and the Potency was “inactive”. In the case of `CCOP(=O)(Nc1ccccc1)OCC`, the Potency is reported as “inactive”. With `CCN(N=Nc1nonc1N)c1nonc1N` the Potency was “inactive”. With `Cc1ccc(NP(=O)(Oc2cccc(C)c2)Oc2cccc(C)c2)nc1` the Potency was “inactive”. `CCOC(=O)NC(Sc1ccccc1)C(Cl)(Cl)Cl` (centres undefined) was tested, and the Potency was “inactive”. `c1ccc(-c2nn[nH]n2)c(-c2nn[nH]n2)c1` was tested, and the Potency was “inactive”. In the case of `CCNC(=S)/N=C(\N)N[N+](=O)[O-]`, the Potency is reported as “inactive”. For `O=C(NC1CCS(=O)(=O)C1)NP(=S)(Oc1ccccc1)Oc1ccccc1` (centres undefined), the Potency was “inactive”. With `CCC(=O)N1C2C3N(C(=O)CC)C1C1N(C(=O)CC)C(C(N1C(=O)CC)N3C(=O)CC)N2C(=O)CC` the Potency was “inactive”. With `CN(C(=O)Cc1ccc(Cl)c(Cl)c1)[C@@H]1CCCC[C@@H]1N1CCCC1` the Potency was “inactive”. In the case of `CC(=O)NC(SC(=S)N(CC(C)C)CC(C)C)C(Cl)(Cl)Cl` (centres undefined), the Potency is reported as “inactive”. `Cc1ccc(OP(=O)(Nc2ccccn2)Oc2ccc(C)cc2)cc1` was tested, and the Potency was “inactive”. With `COC(=O)c1cc2c(s1)N=C(c1ccccc1)N(C)P2(=O)N1CCOCC1` (centres undefined) the Potency was “inactive”. For `O=c1c2cc([N+](=O)[O-])ccc2[nH]c2c([N+](=O)[O-])cc([N+](=O)[O-])cc12`, the Potency was “inactive”. With `CN(C)C(=O)Oc1noc2ccccc12` the Potency was “inactive”. In the case of `O=P1(Nc2nc3ccc(Cl)cc3s2)COc2ccccc2O1` (centres undefined), the Potency is reported as “inactive”. With `CC(C)(C)C(=O)NC(Sc1ccccc1)C(Cl)(Cl)Cl` (centres undefined) the Potency was “inactive”. For `C[C@H]1OP(=O)(Oc2ccccc2)C[C@@H]2O[C@@H]21` (some centres undefined), the Potency was “inactive”. For `C[C@@H]1C=CCP(=O)(Oc2ccccc2)O1` (some centres undefined), the Potency was “inactive”. For `CC(=O)Nc1ccc(Oc2c([N+](=O)[O-])cc([N+](=O)[O-])cc2[N+](=O)[O-])cc1`, the Potency was “inactive”. For `CC(=O)Nc1ccc([As](=O)(O)O)c(O)c1`, the Potency was “inactive”. For `CC(C)C(=O)NC(Sc1ccccc1)C(Cl)(Cl)Cl` (centres undefined), the Potency was “inactive”. With `O=P(Nc1nccs1)(c1ccccc1)c1ccccc1` the Potency was “inactive”. For `c1nnnn1CCn1cnnn1`, the Potency was “inactive”. In the case of `O=P(Nc1ccccn1)(c1ccc(Br)cc1)c1ccc(Br)cc1`, the Potency is reported as “inactive”. `C[C@H]1OP(=O)(Oc2ccccc2)[C@H](O)[C@H](O)[C@H]1N=[N+]=[N-]` (some centres undefined) was tested, and the Potency was “inactive”. With `O=P(Nc1nc2ccccc2s1)(c1ccccc1)c1ccccc1` the Potency was “inactive”. `O=[As](O)(c1ccccc1)c1ccc(O)cc1` was tested, and the Potency was “inactive”. With `CC(=O)NC(SC(=S)N(C)C)C(Cl)(Cl)Cl` (centres undefined) the Potency was “inactive”. For `O=[N+]([O-])c1ncn(CCn2cnc([N+](=O)[O-])n2)n1`, the Potency was “inactive”. For `O=C(OC1CN2CCC1CC2)c1cccc(Cl)c1` (centres undefined), the Potency was “inactive”. In the case of `C(Cc1nn[nH]n1)Cc1nn[nH]n1`, the Potency is reported as “inactive”. With `Nc1ccc([As](=O)(O)c2ccc([N+](=O)[O-])cc2)cc1` the Potency was “inactive”.
